Source: ChEMBL document CHEMBL1128397, “Novel 2,4-diamino-5-substituted-pyrrolo[2,3-d]pyrimidines as classical and nonclassical antifolate inhibitors of dihydrofolate reductases” (J Med Chem, 1995)

Target: T1, Dihydrofolate reductase (Pneumocystis carinii, UniProt P16184)
T1 sequence (P16184 whole entry): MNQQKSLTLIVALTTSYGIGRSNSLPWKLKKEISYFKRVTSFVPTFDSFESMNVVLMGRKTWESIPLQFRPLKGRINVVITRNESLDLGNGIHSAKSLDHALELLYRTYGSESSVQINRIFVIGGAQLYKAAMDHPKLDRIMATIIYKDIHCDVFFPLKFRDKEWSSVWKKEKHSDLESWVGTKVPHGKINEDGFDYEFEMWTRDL

Structure (SMILES): COc1ccc(OC)c(NCc2c[nH]c3nc(N)nc(N)c23)c1
- IC50: 45.7 µM
